Consider one compound from patent US6579881B2 (Eisai Co., Ltd., priority 1997, dated 2003).

Chains of the proteins cited; added tags and fusions are not shown.
UniProt P14842, whole entry, looked up: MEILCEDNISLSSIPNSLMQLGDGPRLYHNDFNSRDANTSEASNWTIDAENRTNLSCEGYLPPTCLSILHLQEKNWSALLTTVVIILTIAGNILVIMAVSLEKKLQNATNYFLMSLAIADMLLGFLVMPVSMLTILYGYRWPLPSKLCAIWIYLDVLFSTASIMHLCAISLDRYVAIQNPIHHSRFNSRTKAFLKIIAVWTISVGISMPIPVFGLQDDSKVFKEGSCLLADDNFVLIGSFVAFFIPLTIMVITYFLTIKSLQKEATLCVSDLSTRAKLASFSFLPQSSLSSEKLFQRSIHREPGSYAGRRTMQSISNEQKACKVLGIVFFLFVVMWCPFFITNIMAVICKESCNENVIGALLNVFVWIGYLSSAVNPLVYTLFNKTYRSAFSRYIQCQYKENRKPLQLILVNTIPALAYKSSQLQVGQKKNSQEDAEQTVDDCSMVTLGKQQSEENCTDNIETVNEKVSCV

In this assay the target is serotonin 2 receptor (Rattus norvegicus, UniProt P14842). The assay is described as follows: Binding test on [3H] ketanserin (serotonin 2 receptor). The settings on record: read-out: 5HT2; [3H] ketanserin 0.3 nM, receptor fraction of rat cerebral cortex.

As for `OC[C@@H]1CN(CCc2ccc(F)cc2)CC[C@@H]1N1CCc2ccccc21` (relative stereo) [Example 81, cis-1-[1-(4-fluorophenethyl)-3-hydroxymethylpiperidin-4-yl]indoline], the Ki was 0.119 µM.
